# Literature values as cited in US10927398B2, “Compositions for CYP450 phenotyping using saliva samples” (Concordia University, Inc., priority 2015, dated 2021).
# Legend:
# plasma protein = conditions: Table of Exemplary Drugs, CYP3A4; cited from earlier work
# [1] = Table of Exemplary Drugs, CYP3A4; cited from earlier work
substance,measurement,setting,value
Maraviroc [Maraviroc (Selzentry)],PLASMA PROTEIN BINDING,plasma protein,76%
same,HALF-LIFE,[1],14 to 18 h
